Laboratory results: PubChem BioAssay AID588511 (Johns Hopkins Ion Channel Center, 2011)
The entries are a selection whose mix differs from that of the whole data set. Calls of active or inactive are those of the source.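 Rule for the calls: active = ratio plate-corrected score three or more library SD toward inhibition, starting fluorescence score within five deviations; inactive = the rest.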

Protein sequences, listed by entry. Tags and fused reporters are not part of them.
UniProt Q8BHY3, whole entry: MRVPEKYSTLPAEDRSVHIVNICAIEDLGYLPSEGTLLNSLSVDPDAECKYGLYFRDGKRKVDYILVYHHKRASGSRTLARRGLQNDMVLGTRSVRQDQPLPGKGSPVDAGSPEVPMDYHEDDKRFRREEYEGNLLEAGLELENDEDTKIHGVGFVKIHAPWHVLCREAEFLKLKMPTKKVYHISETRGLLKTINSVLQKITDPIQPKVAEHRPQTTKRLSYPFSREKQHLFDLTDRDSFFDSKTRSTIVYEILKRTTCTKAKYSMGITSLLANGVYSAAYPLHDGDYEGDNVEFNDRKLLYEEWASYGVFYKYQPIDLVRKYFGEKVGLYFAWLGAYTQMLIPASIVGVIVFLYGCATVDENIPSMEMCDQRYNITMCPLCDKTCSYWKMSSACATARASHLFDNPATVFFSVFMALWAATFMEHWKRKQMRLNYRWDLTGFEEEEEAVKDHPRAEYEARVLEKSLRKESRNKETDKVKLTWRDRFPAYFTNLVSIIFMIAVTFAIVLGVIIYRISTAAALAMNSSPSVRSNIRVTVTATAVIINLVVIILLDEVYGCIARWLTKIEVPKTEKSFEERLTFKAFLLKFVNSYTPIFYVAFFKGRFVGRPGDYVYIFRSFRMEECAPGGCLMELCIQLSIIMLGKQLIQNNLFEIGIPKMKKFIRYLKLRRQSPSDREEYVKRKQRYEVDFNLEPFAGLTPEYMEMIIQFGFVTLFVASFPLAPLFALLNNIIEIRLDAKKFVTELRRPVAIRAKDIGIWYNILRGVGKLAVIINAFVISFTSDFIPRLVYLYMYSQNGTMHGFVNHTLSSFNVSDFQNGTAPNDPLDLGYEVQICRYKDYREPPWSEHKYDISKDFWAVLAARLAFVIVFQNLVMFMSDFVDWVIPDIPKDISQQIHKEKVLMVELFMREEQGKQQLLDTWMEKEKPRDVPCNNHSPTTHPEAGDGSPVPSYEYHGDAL

biological target: Anoctamin-1 (Mus musculus) (UniProt Q8BHY3); experiment: blockers of mouse ANO1 Ca-activated Cl channel – cell-based, HTS, primary screen (AID 588511); details: HEK293 TMEM16A/YFP iodide influx fluorescence, ionomycin; at 10 µM

| Structure (SMILES) | outcome |
| --- | --- |
| CCCOc1ccc(C(=O)NCC2(N(C)C)CCCCC2)cc1OC | inactive |
| CN1CCC(Nc2cccc(F)c2)CC1 | inactive |
| COc1cc(OC)c(C(=O)NCC2(N(C)C)CCCCC2)cc1OC | inactive |
| CN(C)c1cccc(C(=O)NCC2(N3CCCCC3)CCCCC2)c1 | inactive |
| COc1ccc(CN(CCCl)CCCl)cc1Cl | inactive |
| CC(C)c1ccc(NC2CCN(C(=O)OC(C)(C)C)CC2)cc1 | inactive |
| COc1ccc(NC2CCN(C(=O)OC(C)(C)C)CC2)cc1 | inactive |
| CN1CCN(CCOC(=O)C(O)(c2ccccc2)c2ccccc2)CC1 | inactive |
| O=C(NCC1(N2CCOCC2)CCCCC1)c1cc(=O)[nH]c2ccccc12 | inactive |
| COc1cc(C(=O)NCC2(N3CCCCC3)CCCCC2)ccc1OC(F)F | inactive |
| O=C(NCC1(N2CCCCC2)CCCCC1)c1cccc(C(F)(F)F)c1 | inactive |
| O=C(NCC1(N2CCCCC2)CCCCC1)c1cccc([N+](=O)[O-])c1 | inactive |
| N#CC1(Nc2ccccc2)CCN(CCc2ccccc2)CC1 | inactive |
| CCN1CCC(Nc2ccc(Cl)cc2)CC1 | inactive |
| O=C(NCC1(N2CCCCC2)CCCCC1)c1ccc(OC(F)F)cc1 | inactive |
| Cc1ccc(OCC(C)C)c(CN(CCCl)CCCl)c1 | inactive |
| COc1cc(C(=O)NCC2(N(C)C)CCCCC2)ccc1OC(F)F | inactive |
| CCOC(=O)N1CCC(Nc2cccc(C)c2)CC1 | inactive |
| CCOC(=O)N1CCC(Nc2ccc(F)cc2)CC1 | inactive |
| COc1ccc(NC2CCN(CCc3ccccc3)CC2)c(OC)c1 | inactive |

| Structure (SMILES) | outcome |
| --- | --- |
| O=C(NCC1(N2CCCCC2)CCCCC1)c1ccc(F)cc1 | inactive |
| CCOc1ccc(C)cc1CN(CCCl)CCCl | inactive |
| CCOC(=O)N1CCC(Nc2ccc(OC)cc2)CC1 | inactive |
| O=C(OC1CN2CCC1CC2)C1c2ccccc2Oc2ccccc21 (centres undefined) | inactive |
| N#CC1(Nc2ccccc2)CCN(Cc2ccccc2)CC1 | inactive |
| O=C(NCC1(N2CCOCC2)CCCCC1)c1cc2ccccc2o1 | inactive |
| Cc1cc(C)cc(N(C(=O)c2ccccc2)C2CCN(C(=O)OC(C)(C)C)CC2)c1 | inactive |
| O=C(NCC1(N2CCCCC2)CCCCC1)c1ccc(Cl)nc1 | inactive |
| CSc1ccccc1C(=O)NCC1(N2CCCCC2)CCCCC1 | inactive |
| O=C(NCC1(N2CCCCC2)CCCCC1)c1cccs1 | inactive |
| O=C(NCC1(N2CCCCC2)CCCCC1)c1ccc(=O)[nH]c1 | inactive |
| CC(C)(C)OC(=O)N1CCC(N(C(=O)c2ccccc2)c2ccc(F)cc2)CC1 | inactive |
| COc1ccc(C(=O)NCC2(N3CCCCC3)CCCCC2)c(OC)c1OC | inactive |
| COc1ccc(C(=O)NCC2(N3CCCCC3)CCCCC2)cc1 | inactive |
| CCCOc1ccc(C)cc1CN(CCCl)CCCl | inactive |
| CN1CCC(Nc2ccc(Cl)cc2)CC1 | inactive |
| CCC(CO)(C(=O)OC1CN2CCC1CC2)c1ccccc1 (centres undefined) | inactive |
| COc1cccc(C(=O)N(c2cc(C)cc(C)c2)C2CCN(C(=O)OC(C)(C)C)CC2)c1 | inactive |
| COc1cc(OC)cc(C(=O)NCC2(N3CCOCC3)CCCCC2)c1 | inactive |
| CCCOc1ccc(C(=O)NCC2(N(C)C)CCCCC2)cc1 | inactive |

| Structure (SMILES) | outcome |
| --- | --- |
| O=C(O)C1(Nc2ccccc2)CCN(Cc2ccccc2)CC1 | inactive |
| CC(C)(C)OC(=O)N1CCC(Nc2ccccc2)CC1 | inactive |
| CN1CCC(Nc2ccc(F)c(Cl)c2)CC1 | inactive |
| CCOc1ncccc1C(=O)NCC1(N2CCOCC2)CCCCC1 | inactive |
| CN(C)c1ccc(C(=O)NCC2(N3CCCCC3)CCCCC2)cc1 | inactive |
| CCN1CCC(Nc2cccc(F)c2)CC1 | inactive |
| Fc1ccccc1NC1CCN(Cc2ccccc2)CC1 | inactive |
| Cc1ccc(C(=O)NCC2(N3CCCCC3)CCCCC2)o1 | inactive |
| COc1cc(OC)cc(C(=O)NCC2(N3CCCCC3)CCCCC2)c1 | inactive |
| CCCN1CCC(Nc2cc(OC)cc(OC)c2)CC1 | inactive |
| c1ccc(CN2CCC(Nc3ccccc3)CC2)cc1 | inactive |
| CN(C)C1(CNC(=O)c2cccc(C#N)c2)CCCCC1 | inactive |
| CC(C)(C)OC(=O)N1CCC(N(C(=O)c2ccccc2)c2ccc(Cl)cc2)CC1 | inactive |
| N#Cc1ccc(C(=O)NCC2(N3CCCCC3)CCCCC2)cc1 | inactive |
| O=C(OC1CN2CCC1CC2)C1c2ccccc2C=Cc2ccccc21 (centres undefined) | inactive |
| CCc1cc(C(=O)NCC2(N3CCCCC3)CCCCC2)sc1C | inactive |
| N/C(=N\O)c1c(N)no[n+]1[O-] | inactive |
| CCOC(=O)N1CCC(Nc2ccc(C)cc2)CC1 | inactive |
| COc1ccc(C(=O)NCC2(N3CCOCC3)CCCCC2)cc1OC | inactive |
